This test has as its system primary myeloma cells from patients. The test is described as follows: cells. The settings on record: Homo sapiens, 96 h, read-out: reduction of median number of viable myeloma cells. From the text: Results are median values of the numbers of myeloma cells in the culture wells.

From patent US20200330467A1, “METHOD AND PHARMACEUTICAL COMPOSITIONS FOR THE TREATMENT OF MULTIPLE MYELOMA” (priority 2016, published 2020) come the findings set out here.

Turning to `COc1cc2nc(N3CCCC3)nc(NCCCCCN3CCCC3)c2cc1OC` [UNC0379], the cytotoxicity at 1 µM was found to be 19%, the cytotoxicity at 2.5 µM stood at 57% and the cytotoxicity at 5 µM was 66%.
